logP (octanol/water) values, as collected for the OPERA models

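The OPERA project collected these measurements from public sources as training and test data for property models. One number stands for a compound and property, with no spread given. Method and conditions are not stated for these values. Where a salt, mixture or single isomer is drawn, the source does not say that exactly this form was tested. Unmarked limits or estimates from the upstream databases cannot be ruled out.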

logP is the log10 of the octanol-water partition coefficient; higher is more lipophilic.

CCN(CC)c1ccc2cc(-c3nc(=O)c4ccccc4[nH]3)c(=O)oc2c1 has logP 4.9.
CC(=O)c1cccc2ccccc12 [1'-Acetonaphthone] has logP 2.723.
CCOc1cc(NC(=O)c2ccccc2)c(OCC)cc1N [Benzamide, N-(4-amino-2,5-diethoxyphenyl)-] has logP 3.232.
CN(Cc1ccc(C(C)(C)C)cc1)Cc1cccc2ccccc12 [Butenafine] has logP 6.6.
NCCCOCCOCCOCCCN.O=C(O)/C=C\C(=O)O.O=C(O)/C=C\C(=O)O has logP -2.6.
CCCCCCCCCC(=O)OCCCCC [Pentyl decanoate] has logP 6.11.
Cc1nn(-c2ccccc2)c(=O)[c-]1/N=N/c1cc(S(C)(=O)=O)c([N+](=O)[O-])cc1[O-].Cc1nn(-c2ccccc2)c(=O)[c-]1/N=N/c1cc(S(C)(=O)=O)c([N+](=O)[O-])cc1[O-].[Cr+3].[Na+] has logP 1.2.
N[C@@H](Cc1cc(I)c(O)c(I)c1)C(=O)O [3,5-Diiodo-L-tyrosine] has logP 0.37.
CCC(C)c1cc(N=Nc2ccc([N+](=O)[O-])cc2)cc(C(C)CC)c1O (stereo not drawn) has logP 6.4.
CC(CC(N)=O)n1nc2ccccc2n1 (stereo not drawn) [3-(2H-Benzotriazol-2-yl)butanamide] has logP 1.
C[N+](C)(C)c1ccc2ccc(O)c(/N=N/c3ccc(N)c([N+](=O)[O-])c3)c2c1.[Cl-] has logP 2.736.
CCc1ccc(B(O)O)cc1 [4-Ethylphenylboronic acid] has logP 2.8.
CC(CCO)CCCC(C)(C)O (stereo not drawn) [3,7-Dimethyloctane-1,7-diol] has logP 1.59.
CCCCc1ccc(Br)cc1 [1-Bromo-4-butylbenzene] has logP 5.4.
CC(C)(C)c1cc(CCC(=O)NNC(=O)CCc2cc(C(C)(C)C)c(O)c(C(C)(C)C)c2)cc(C(C)(C)C)c1O has logP 4.8.
OCCN1CN(CCO)CN(CCO)C1 [Triazinetriethanol] has logP -1.255.
CN(C)CCOCCN(C)CCO [2-[{2-[2-(Dimethylamino)ethoxy]ethyl}(methyl)amino]ethanol] has logP -0.515.
CC1(C)C(C=CC2=C(Cl)/C(=C/C=C3\N(CCCCS(=O)(=O)[O-])c4ccc5ccccc5c4C3(C)C)CCC2)=[N+](CCCCS(=O)(=O)[O-])c2ccc3ccccc3c21.[NH4+] has logP 1.2.
Brc1c(Br)c(Br)c(-c2c(Br)c(Br)c(Br)c(Br)c2Br)c(Br)c1Br [1,1'-Biphenyl, 2,2',3,3',4,4',5,5',6,6'-decabromo-] has logP 8.58.
CC(=O)N(C)CCCN1c2ccccc2CCc2ccccc21 has logP 0.12.
O=C([O-])c1ccc(S(=O)(=O)[N-]Cl)cc1.[Na+].[Na+] [Monalazone disodium] has logP 1.45.
CCCCCCCCCCCCCCCC[N+](C)(C)Cc1ccccc1.[Cl-] [Benzylhexadecyldimethylammonium chloride] has logP 3.321.
CCN(CCC#N)c1ccc(N=Nc2ccc([N+](=O)[O-])cc2)cc1 [C.I. Disperse Orange 25] has logP 4.38.
Nc1nc(Cl)nc(Nc2ccc(S(=O)(=O)[O-])c(/N=N/c3c(S(=O)(=O)[O-])cc4cc(S(=O)(=O)[O-])c(/N=N/c5cc(S(=O)(=O)[O-])ccc5S(=O)(=O)[O-])c(N)c4c3O)c2)n1.[Na+].[Na+].[Na+].[Na+].[Na+] [C.I. Reactive Blue 176] has logP -3.96.
O=Cc1cc(Br)ccc1O [5-Bromosalicylaldehyde] has logP 2.5.
CCN(CCO)c1ccc(/N=N/c2sc3cc(OC)ccc3[n+]2C)cc1.[Cl-] has logP -1.6.
COC(=O)CCc1cc(-n2nc3ccccc3n2)c(O)c(C(C)(C)C)c1 has logP 5.1.
CCCCC(CC)COC(=O)/C=C\C(=O)OCC(CC)CCCC (stereo partly drawn) [Bis(2-ethylhexyl) maleate] has logP 7.24.
CC(C)(C)c1ccc(CCC=O)cc1 [3-(4-tert-Butylphenyl)propanal] has logP 3.2.
CCCCCCCCCCCCCCCCCC(=O)NCCO [N-(2-Hydroxyethyl)octadecanamide] has logP 4.46.
N[C@@H]1CONC1=O [Cycloserine] has logP -0.9.
CCC(C)(C)OC [tert-Amyl methyl ether] has logP 1.55.
CN(C)CC(c1ccc(O)cc1)C1(O)CCCCC1 (stereo not drawn) [O-Desmethylvenlafaxine] has logP 0.33.

A selection of 3 entries from above:

CCOc1cc(NC(=O)c2ccccc2)c(OCC)cc1N [Benzamide, N-(4-amino-2,5-diethoxyphenyl)-] is reported with logP 3.232.
CCC(C)(C)OC [tert-Amyl methyl ether] is reported with logP 1.55.
C[N+](C)(C)c1ccc2ccc(O)c(/N=N/c3ccc(N)c([N+](=O)[O-])c3)c2c1.[Cl-] is reported with logP 2.736.

From the experimental data distributed with OPERA 2.9.